The values that follow come from US20240245771A1 (XUZHOU MEDICAL UNIVERSITY, published 2024).

This test concerns the target T1, B7H3 target antigen (UniProt Q5ZPR3 29-466, limits assumed).
T1 construct: Control antigen is called 'other biotin-free antigen', which hints that this antigen may be biotinylated; also called B7H3 antigen; B7-H3 antigen
T1 sequence (looked up): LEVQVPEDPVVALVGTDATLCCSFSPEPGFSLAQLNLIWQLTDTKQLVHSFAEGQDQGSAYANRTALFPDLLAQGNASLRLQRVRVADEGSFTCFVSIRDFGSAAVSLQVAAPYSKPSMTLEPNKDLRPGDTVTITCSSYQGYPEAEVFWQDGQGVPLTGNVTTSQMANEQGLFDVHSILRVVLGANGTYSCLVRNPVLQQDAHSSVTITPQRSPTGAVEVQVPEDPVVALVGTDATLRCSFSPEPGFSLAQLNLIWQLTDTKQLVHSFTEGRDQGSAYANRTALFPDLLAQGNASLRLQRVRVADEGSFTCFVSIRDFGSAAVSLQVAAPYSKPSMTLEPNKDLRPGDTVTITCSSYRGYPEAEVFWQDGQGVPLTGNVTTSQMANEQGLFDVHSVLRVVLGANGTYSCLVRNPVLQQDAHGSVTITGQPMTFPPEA
As to the kind of experiment: SPR (Biacore): B7H3-02 antibody at 1 µg/mL captured on a Protein A chip, B7-H3 antigen flowed over in a concentration series, Langmuir fit.

B1: purified B7H3-02 scFv protein (prokaryotic expression, pET-22b) (scFv)
scFv: EVQLFQSGGGLVQPGGSLRLSCAASGFTFSSYAMSWVRQAPGKGLEWVSAISGSGGSTYYADSVKGRFTISRDNSKNTLYLQMNSLRAEDTAVYYCARGVGRGFDYWGQGTTVTVSSSGGGSGGGGSGGGGSDIQLTQSPSSLSASVGDRVTITCRASQSISIYLNWYRQQPGKAPKLLIYAASSLQSGVPSRFSGSGSGTDFTLTISSLQPEDFATYFCQQTYSTPPWTFGQGTKVDIK
notes: The Biacore experiment speaks of 'purified B7H3-02 antibodies' captured on a Protein A chip; also called B7H3-02 scFv antibody; B7H3-02 antibody; not shown: His tag implied (detected with His antibodies, pET-22b vector)
The molecule B1 showed an off-rate (koff) of 0.124 s⁻¹ and a kon of 4.47e+06 M⁻¹ s⁻¹.
